Consider 1 substance from patent EP0961591B1, “METHOD TO ENHANCE TISSUE AC[…] RADIOLABELED COMPOUNDS” (BOARD OF SUPERVISORS OF LOUISIANA STATE UNIVERSITY AND …, priority 1997, dated 1999).

The subject of the data set is tumor in the left side of the neck.

Like-named read-outs stand apart in the source and are kept apart here.

As for “(^111In-DTPA-D-Phe^1)-octreotide [^111In-pentetreotide]”, the “External Dose Accumulation” value came out at 70 mR/hr (Infusion 1 (over 72 hr, 2.5 mCi/hr), 48 hr from initial infusion); 70 mR/hr (Infusion 1 (over 72 hr, 2.5 mCi/hr), 72 hr from initial infusion); 180 mR/hr (Infusion 2 (389.22 mCi total), 16 hr from initial infusion); 210 mR/hr (Infusion 2 (389.22 mCi total), 17 hr from initial infusion); 180 mR/hr (Infusion 2 (389.22 mCi total), 23 hr from initial infusion); 200 mR/hr (Infusion 2 (389.22 mCi total), 42 hr from initial infusion). In addition, the “External Dose Accumulation” value came out at 200 mR/hr (Infusion 2 (389.22 mCi total), 44 hr from initial infusion); 210 mR/hr (Infusion 2 (389.22 mCi total), 68 hr from initial infusion); 66 mR/hr (Infusion 2 (389.22 mCi total), 161 hr from initial infusion); 410 mR/hr (Infusion 3 (346.49 mCi total), 19 hr from initial infusion); 410 mR/hr (Infusion 3 (346.49 mCi total), 20 hr from initial infusion); 70 mR/hr (Infusion 3 (346.49 mCi total), 164 hr from initial infusion).
